In ChEMBL document CHEMBL1125505, “Nucleosides and nucleotides. 112. 2-(1-Hexyn-1-yl)adenosine-5'-uronamides: a new entry of selective A2 adenosine receptor agonists with potent antihypertensive activity” (J Med Chem, 1992) one finds Ki data, which are given here for two compounds.

Sequences of proteins named here, by UniProt entry; tags and fusion partners are left off.
UniProt P25099, whole entry: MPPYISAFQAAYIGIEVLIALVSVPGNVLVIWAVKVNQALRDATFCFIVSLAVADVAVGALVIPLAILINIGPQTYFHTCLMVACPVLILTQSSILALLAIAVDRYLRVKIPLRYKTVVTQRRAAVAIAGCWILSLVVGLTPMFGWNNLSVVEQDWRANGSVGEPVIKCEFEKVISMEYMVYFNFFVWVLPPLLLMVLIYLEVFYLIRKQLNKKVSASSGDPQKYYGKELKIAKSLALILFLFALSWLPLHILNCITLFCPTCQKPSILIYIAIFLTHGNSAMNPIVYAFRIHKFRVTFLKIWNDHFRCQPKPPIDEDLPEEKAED

SMILES strings stand for the structures. pKi: −log10 of the molar value.

For the experiment, the target named is Adenosine receptor A1 (Rattus norvegicus, UniProt P25099). Nature of the experiment: Binding affinity against adenosine A1 receptor from rat brain membranes using [3H]cyclohexyladenosine as radioligand.

As usually defined, the pKi is −log10 of the Ki, conventionally taken in molar units. A low value points to a high Ki. `Nc1nc(Nc2ccccc2)nc2c1ncn2[C@@H]1O[C@H](CO)[C@@H](O)[C@H]1O` had a pKi of 6.28. For `CCNC(=O)[C@H]1O[C@@H](n2cnc3c(N)nc(NCCc4ccc(CCC(=O)O)cc4)nc32)[C@H](O)[C@@H]1O` [CGS-21680] the value was 5.94.
